{"sequences": {"note": "Chains of the proteins cited; added tags and fusions are not shown. Lines headed by an entry give the natural chain unless they say otherwise; changes in a name come on top.", "UniProt P37088": "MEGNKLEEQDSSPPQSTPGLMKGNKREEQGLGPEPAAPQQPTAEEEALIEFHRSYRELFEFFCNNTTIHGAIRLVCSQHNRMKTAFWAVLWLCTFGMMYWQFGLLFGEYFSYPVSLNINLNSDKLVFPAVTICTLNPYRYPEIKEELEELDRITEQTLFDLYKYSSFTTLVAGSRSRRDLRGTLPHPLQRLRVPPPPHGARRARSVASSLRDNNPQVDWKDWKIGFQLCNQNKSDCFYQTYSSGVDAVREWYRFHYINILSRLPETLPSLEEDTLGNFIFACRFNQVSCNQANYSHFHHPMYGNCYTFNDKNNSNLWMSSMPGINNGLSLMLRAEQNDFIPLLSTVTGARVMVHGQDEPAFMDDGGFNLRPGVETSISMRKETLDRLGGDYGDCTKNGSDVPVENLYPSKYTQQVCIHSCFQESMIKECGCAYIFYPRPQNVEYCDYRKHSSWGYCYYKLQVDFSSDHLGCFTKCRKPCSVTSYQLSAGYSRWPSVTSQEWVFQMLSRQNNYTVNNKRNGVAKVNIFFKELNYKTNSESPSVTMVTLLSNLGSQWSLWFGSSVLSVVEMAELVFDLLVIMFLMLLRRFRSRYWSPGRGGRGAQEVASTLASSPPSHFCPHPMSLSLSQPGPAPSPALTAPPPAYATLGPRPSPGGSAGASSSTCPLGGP", "UniProt P51168": "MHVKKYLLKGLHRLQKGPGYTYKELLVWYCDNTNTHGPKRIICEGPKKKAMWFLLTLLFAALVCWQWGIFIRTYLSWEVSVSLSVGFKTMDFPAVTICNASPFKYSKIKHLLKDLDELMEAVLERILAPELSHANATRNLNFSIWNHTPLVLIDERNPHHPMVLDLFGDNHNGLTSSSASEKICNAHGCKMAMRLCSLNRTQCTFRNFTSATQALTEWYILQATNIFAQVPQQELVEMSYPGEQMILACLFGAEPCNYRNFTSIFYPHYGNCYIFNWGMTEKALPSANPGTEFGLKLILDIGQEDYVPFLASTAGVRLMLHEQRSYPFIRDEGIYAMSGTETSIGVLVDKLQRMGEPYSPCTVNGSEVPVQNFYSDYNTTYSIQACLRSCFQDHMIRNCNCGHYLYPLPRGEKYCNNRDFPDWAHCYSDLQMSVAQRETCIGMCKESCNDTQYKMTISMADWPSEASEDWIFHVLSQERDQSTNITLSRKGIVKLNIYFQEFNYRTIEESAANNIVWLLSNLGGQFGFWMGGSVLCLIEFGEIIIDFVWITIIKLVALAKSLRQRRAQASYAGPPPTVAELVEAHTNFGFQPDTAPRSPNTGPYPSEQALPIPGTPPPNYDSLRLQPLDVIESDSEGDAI", "UniProt P51170": "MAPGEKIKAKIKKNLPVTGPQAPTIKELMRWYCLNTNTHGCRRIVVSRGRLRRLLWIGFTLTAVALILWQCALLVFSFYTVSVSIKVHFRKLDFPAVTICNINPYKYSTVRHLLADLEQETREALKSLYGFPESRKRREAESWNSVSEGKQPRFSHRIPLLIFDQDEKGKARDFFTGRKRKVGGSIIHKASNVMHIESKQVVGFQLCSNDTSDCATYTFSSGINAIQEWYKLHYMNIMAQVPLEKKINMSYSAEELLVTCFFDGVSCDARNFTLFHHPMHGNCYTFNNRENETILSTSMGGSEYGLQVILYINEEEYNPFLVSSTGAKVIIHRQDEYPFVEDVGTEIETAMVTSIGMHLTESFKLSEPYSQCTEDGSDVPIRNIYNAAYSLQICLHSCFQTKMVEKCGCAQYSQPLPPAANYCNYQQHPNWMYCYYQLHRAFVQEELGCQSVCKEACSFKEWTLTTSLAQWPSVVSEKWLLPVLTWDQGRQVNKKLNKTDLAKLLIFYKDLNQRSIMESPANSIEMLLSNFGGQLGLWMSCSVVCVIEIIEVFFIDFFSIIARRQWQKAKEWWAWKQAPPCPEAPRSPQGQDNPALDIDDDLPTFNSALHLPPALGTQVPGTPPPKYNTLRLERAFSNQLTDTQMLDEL"}, "source": "patent US12605424B2", "about": "(priority 2019, dated 2026)", "origin": "cited, not measured here", "target": "α, β, γ-hENaC (Homo sapiens, UniProt P37088+P51168+P51170)", "conditions": "cited from earlier work"}
{"smiles": "N=C(N)NC(=O)c1nc(Cl)c(N)nc1N", "note": "[amiloride]", "values": [{"measurement": "inhibition of Na^+ currents of ENaC injected oocytes", "value": 90, "unit": "%"}]}
